Test results: patent publication US8921306B2, “Nociceptin mimetics” (The University of Queensland, priority 2010, dated 2014)
Where two headings read alike, the source gives them in different places.

Key:
[1] = biological target: T1, ORL-1 receptor (Mus musculus, UniProt P35377); test: Agonist functional activity assessed by ERK phosphorylation (pERK) in Neuro-2a cells; format: cell-based
T1 construct: Neuro-2a cells were a gift from Professor John Mattick's laboratory; endogenous in cells; host or cells: Neuro-2a cells
Method: (§1) Neuro-2a cells were a gift from Professor John Mattick's laboratory (Institute of Molecular Bioscience, University of Queensland) and were cultured in Gibco® DMEM (Invitrogen, CA, USA) supplemented with 10% FBS (Invitrogen, CA, USA), GIBCO® Pen/Strep (50 units/mL penicillin and 50 μg/mL streptomycin, Invitrogen, CA, USA) and GIBCO® NEAA (1× concentration, Invitrogen, CA, USA). Cells were split 1:10 every 3 days.
(§2) All cells were incubated at 37° C. and 5% CO2. When treated with pertussis toxin (PTX, catalogue number P7208, Sigma-Aldrich, NY, USA), cells were incubated with 500 ng/mL for 15 hours before use. Cells treated with MEK inhibitor PD98059 (catalogue number PHZ1164, Invitrogen, CA, USA) were preincubated with 50 μM for 1 hour before use.
(§3) Cells were placed in 12-well plates (NUNC™, NY, USA) and allowed to adhere for 24-36 h. […] For agonist assays, cells were challenged with compounds for 35 minutes and incubated at 37° C. (5% CO2).
(§4) Membranes were washed 3×10 minutes with TBE (with 0.1% Tween-20) and incubated with a primary antibody. For pERK, rabbit polyclonal ERK1+2 [pTpY185/187] […] Instead, rabbit IgG Phospho-ERK1 (T202/Y204)/ERK2 (T185/Y187) (1:2000, catalogue number AF1018, R&D Systems, MN, USA) was used. […] After multiple washes, the membranes were developed using ECL Detection Solution (Amersham Biosciences) and visualized using photographic film. Radiography was quantified using ImageJ (ImageI 1.36b, NIH).
(§5) pERK and total ERK concentrations were determined using a modified protocol for the AlphaScreen Surefire Assay. The modified protocol used half the volume of reagents recommended in the manufacturers' protocol with 2 μL of cell extract in both pERK and total ERK assays. The ratio of pERK to total ERK was determined using equation 1 and normalized to control. For agonist responses, the controls used were PBS (0%) and 1 μM nociceptin1-17-OH (100%). For antagonist responses, the controls used were PBS (100%) and 100 nM nociceptin1-17-NH2 (100%).
(§6) Concentration responses were analyzed using non-linear regression (variable slope) (Prism5, GraphPad Software) and data is presented as either EC50 (for agonists) or IC50 (antagonists).
(§7) Helix constrained and unconstrained peptides were pre-screened using the pERK assay at a single concentration.

[2] = tested on: C57BL/6 mice; test: Anti-nociceptive activity in mice, hot plate front paw withdrawal latency; format: in vivo; conditions: for duration of anti-nociceptive effect: hot plate
Method: A similar dose has been used before by others for nociceptin (NC, SEQ ID NO:1) itself in similar assays with some activity (EC50=200 pmol).
Mice (C57BL/6; n=45) were brought into the experimental room for at least 30 minutes prior to testing. They were then individually placed on an accredited hot plate heated to 53±0.54° C. and timed until any front paw withdrawal, licking or jumping behaviour was recorded (baseline response). Mice were not left on the hot plate for longer than 30 sec. […] Mice were then individually placed on the hot plate again at time points 1, 5, 15, 30, 45 and 60 min post injection. Each test was video monitored.
In a parallel experiment, agonist of SEQ ID NO:8 was co-administered with the helical antagonist of SEQ ID NO:13, where upon the increased paw withdrawal latency produced by agonist of SEQ ID NO:8 alone was abolished. This confirms that the helix constrained peptide of SEQ ID NO:13 is a potent antagonist of SEQ ID NO:8 in vivo.

[3] = Circular dichroism spectroscopy (helicity); format: physicochemical; conditions: for θ222/208 (buffer) / fH (buffer): 10 mM phosphate buffer (pH 7.4) at 22° C.; for fH (buffer): fH calculated based on θ at 222 nm; for fH (TFE*): buffer: TFE 50:50, 22° C.
Method: CD measurements were performed using a Jasco model J-710 spectropolarimeter which was routinely calibrated with (1S)-(+)-10-camphorsulfonic acid. A stock solution of 1-2 mg of peptide was dissolved in 1 mL of water. Separate 500 μL solutions of 50, 100, 200 and 400 μM were then prepared using an appropriate amount of stock solution and making up the different with 10 mM Phosphate Buffer (final pH 7.1). […] Jasco quartz cell over the wavelength range 260-185 nm at 100 nm/min. with a bandwidth of 1.0 nm, response time of 2 s, resolution step width of 1 nm and sensitivity of 20-50 Mdeg. Each spectrum represents the average of 5 scans. Spectra were analyzed using the spectral analysis software and smoothed using ‘adaptive smoothing’ function. Concentrations were determined using the PULCON method. [Wider, Dreier, 2006, J. Am. Chem. Soc. 128:2571-2576]
The incorporation of two lactam bridges induced appreciable helicity, monitored at 222 nm, and was calculated to range between 32-77% helicity. By comparison, the unconstrained nociceptin peptides (SEQ ID NOs:1-5, 9 and 10) had less than 6% α-helicity in water. […] This is due to the fact that residues 1-6 (or 1-5 in 6) are not constrained and would not be expected to be in a helical conformation as they feature amino acids that have little or no propensity to adopt helices in proteins. To determine whether the exocyclic regions were the sole cause of low helicity, SEQ ID NO:15 without the N-terminal message was investigated further. This 12-residue peptide features eight residues (K, R, Q) known to favor α-helicity in proteins, and was 60% helical in phosphate buffer by CD spectral analysis. The serine residue is conserved within the sequence of many of these peptides and is known to be a helix breaker.

[4] = biological target: T1, ORL-1 receptor; test: Antagonist functional activity assessed by ERK phosphorylation (pERK) in Neuro-2a cells challenged with 100 nM nociceptin(1-17)-NH2; format: cell-based; conditions: for Emax: N2a, antagonist pERK, controls PBS (100%) and 100 nM nociceptin1-17-NH2 (100%)
Method: as §1, §2, §3, §4, §5, §6, §7

[5] = circular dichroism; conditions: 10 mM phosphate; pH 7.4; 22 °C; 50-400 uM
[6] = antagonist pERK activity, 15 minutes pre-incubation, 100 nM nociceptin(1-17)-NH2, read-out: -log IC50 ± SEM (converted)
[7] = antagonist pERK activity, printed as log IC50 with negative sign, read-out: log IC50 (converted)
[8] = antagonist pERK activity vs 100 nM nociceptin(1-17)-NH2, IA = inactive, maximum concentration tested 100 nM, read-out: IC50

Compound | θ222/208 (buffer) [3] | fH (buffer) [3] | Emax [4] | IC50 [4, 6] | IC50 [4, 8] | further results
CC(C)C[C@H](NC(=O)[C@H](CCCCN)NC(=O)[C@H](CCCNC(=N)N)NC(=O)[C@H](C)NC(=O)[C@H](CO)NC(=O)[C@H](CCCCN)NC(=O)[C@H](CCCNC(=N)N)NC(=O)[C@H](C)NC(=O)CNC(=O)[C@@H](NC(=O)[C@H](Cc1ccc(F)cc1)NC(=O)CNC(=O)CNC(=O)[C@@H](N)Cc1ccccc1)[C@@H](C)O)C(=O)N[C@@H](CCCCN)C(=O)N[C@@H](CC(N)=O)C(=O)N[C@@H](CCC(N)=O)C(N)=O [SEQ ID NO:3] | – | – | – | – | – | EC50 ([1]; agonist pERK activity, Neuro-2a cells, read-out: EC50): 0.36 nM; log EC50 ([1]; agonist pERK activity, printed as log EC50 with negative sign): −9.44±0.12; improvement in agonist potency (fold) ([1]; relative to unmodified or unconstrained analogue): 30 fold; duration of anti-nociceptive effect ([2]; 200 pmol per front paw): < 15 min
CC(C)C[C@H](NC(=O)[C@H](CCCCN)NC(=O)[C@H](CCCNC(=N)N)NC(=O)[C@H](C)NC(=O)[C@H](CO)NC(=O)[C@H](CCCCN)NC(=O)[C@H](CCCNC(=N)N)NC(=O)[C@H](C)NC(=O)CNC(=O)[C@@H](NC(=O)[C@H](Cc1ccc(F)cc1)NC(=O)CNC(=O)CNC(=O)CNCc1ccccc1)[C@@H](C)O)C(=O)N[C@@H](CCCCN)C(=O)N[C@@H](CC(N)=O)C(=O)N[C@@H](CCC(N)=O)C(N)=O [compound 10] | 0.02 | 0.03 | 101 ± 4% | 32.4 nM | – | fH (TFE*) [3]: 0.25
CC(C)C[C@H](NC(=O)[C@H](CCCCN)NC(=O)[C@H](CCCNC(=N)N)NC(=O)[C@H](C)NC(=O)[C@H](CO)NC(=O)[C@H](CCCCN)NC(=O)[C@H](CCCNC(=N)N)NC(=O)[C@H](C)NC(=O)CNC(=O)[C@@H](NC(=O)[C@H](Cc1ccccc1)NC(=O)CNC(=O)CNC(=O)[C@@H](N)Cc1ccccc1)[C@@H](C)O)C(=O)N[C@@H](C)C(=O)N[C@@H](CC(N)=O)C(=O)N[C@@H](CCC(N)=O)C(N)=O [SEQ ID NO:2, reference compound] | – | – | – | – | – | rise of thermal nociceptive threshold ([2]; 200 pmol per front paw, at 1 min): ~20%; duration of anti-nociceptive effect ([2]; 200 pmol per front paw): < 5 min; ED50 ([2]; anti-nociceptive effect, intraplantar into front paws, hot plate 53° C., C57BL/6 mice): 184 pmol
C[C@@H](O)[C@H](NC(=O)[C@H](Cc1ccccc1)NC(=O)CNC(=O)CNC(=O)CNCc1ccccc1)C(=O)NCC(=O)N[C@H]1CCCCNC(=O)C[C@@H](C(=O)N[C@@H](CCCNC(=N)N)C(=O)N[C@@H](CCCCN)C(=O)N[C@H]2CCCCNC(=O)C[C@@H](C(N)=O)NC(=O)[C@H](CCC(N)=O)NC(=O)[C@H](CC(N)=O)NC(=O)[C@H](CCCCN)NC2=O)NC(=O)[C@H](CO)NC(=O)[C@H](CCCCN)NC(=O)[C@H](CCCNC(=N)N)NC1=O [compound 12] | 0.93 | 0.41 | 98 ± 6% | 12.3 nM | – | –
CC(C)C[C@@H]1NC(=O)[C@H](CCCCN)NC(=O)[C@H](CCCNC(=N)N)NC(=O)[C@@H](NC(=O)[C@@H]2CC(=O)NCCCC[C@H](NC(=O)[C@@H](NC(=O)[C@H](Cc3ccccc3)NC(=O)CNC(=O)CNC(=O)CNCc3ccccc3)[C@@H](C)O)C(=O)N[C@@H](C)C(=O)N[C@@H](CCCNC(=N)N)C(=O)N[C@@H](CCCCN)C(=O)N2)CCCCNC(=O)C[C@@H](C(N)=O)NC1=O [compound 14] | – | – | – | > 100 nM | – | helicity [5]: 0.77 frac
C[C@H](NC(=O)CNC(=O)[C@@H](NC(=O)[C@H](Cc1ccccc1)NC(=O)CNC(=O)CNC(=O)CNCc1ccccc1)[C@@H](C)O)C(=O)N[C@@H](CCCN=C(N)N)C(=O)N[C@@H](CCCCN)C(=O)N[C@@H](CO)C(=O)N[C@@H](C)C(=O)N[C@@H](CCCN=C(N)N)C(=O)N[C@@H](CCCCN)C(N)=O [SEQ ID NO:11, reference compound] | – | – | – | – | – | IC50 [4, 7]: 575 nM
CC(C)C[C@H](NC(=O)[C@H](CCCCN)NC(=O)[C@H](CCCNC(=N)N)NC(=O)[C@H](C)NC(=O)[C@H](CO)NC(=O)[C@H](CCCCN)NC(=O)[C@H](CCCNC(=N)N)NC(=O)[C@H](C)NC(=O)CNC(=O)[C@@H](NC(=O)[C@H](Cc1ccccc1)NC(=O)CNC(=O)CNC(=O)CNCc1ccccc1)[C@@H](C)O)C(=O)N[C@@H](CCCCN)C(=O)N[C@@H](CC(N)=O)C(=O)N[C@@H](CCC(N)=O)C(N)=O [compound 9] | 0.05 | 0.04 | 103 ± 6% | 39.8 nM | 39 nM | fH (TFE*) [3]: 0.24
C[C@@H](O)[C@H](NC(=O)[C@H](Cc1ccccc1)NC(=O)CNC(=O)CNC(=O)CNCc1ccccc1)C(=O)NCC(=O)N[C@H]1CCCCNC(=O)C[C@@H](C(=O)N[C@@H](CCCNC(=N)N)C(=O)N[C@@H](CCCCN)C(=O)N[C@H]2CCCCNC(=O)C[C@@H](C(N)=O)NC(=O)[C@H](CCC(N)=O)NC(=O)[C@H](CC(N)=O)NC(=O)[C@H](CCCCN)NC2=O)NC(=O)[C@H](CO)NC(=O)[C@H](CCCCN)NC(=O)[C@H](CCCNC(=N)N)NC1=O [SEQ ID NO:12, BzlGGGFTG[KRKSD]RK[KKNQD]-NH2] | – | – | – | – | – | improvement in antagonist activity (fold) ([4]; constrained relative to unconstrained analogue): three-fold
CC(C)C[C@H](NC(=O)[C@H](CCCCN)NC(=O)[C@H](CCCNC(=N)N)NC(=O)[C@H](C)NC(=O)[C@H](CO)NC(=O)[C@H](CCCCN)NC(=O)[C@H](CCCNC(=N)N)NC(=O)[C@H](C)NC(=O)CNC(=O)[C@@H](NC(=O)[C@H](Cc1ccccc1)NC(=O)CNC(=O)CNC(=O)CNCc1ccccc1)[C@@H](C)O)C(=O)N[C@@H](CCCCN)C(=O)N[C@@H](CC(N)=O)C(=O)N[C@@H](CCC(N)=O)C(N)=O [SEQ ID NO:9] | – | – | – | – | 39 nM | IC50 [4, 7]: 39.8 nM
C[C@@H](O)[C@H](NC(=O)[C@H](Cc1ccc(F)cc1)NC(=O)CNC(=O)CNC(=O)CNCc1ccccc1)C(=O)NCC(=O)N[C@H]1CCCCNC(=O)C[C@@H](C(=O)N[C@@H](CCCNC(=N)N)C(=O)N[C@@H](CCCCN)C(=O)N[C@H]2CCCCNC(=O)C[C@@H](C(N)=O)NC(=O)[C@H](CCC(N)=O)NC(=O)[C@H](CC(N)=O)NC(=O)[C@H](CCCCN)NC2=O)NC(=O)[C@H](CO)NC(=O)[C@H](CCCCN)NC(=O)[C@H](CCCNC(=N)N)NC1=O [compound 13] | 0.94 | 0.39 | 89 ± 5% | – | 7.55 nM | helicity [5]: 0.39 frac
